Results reported in US9434994B2, “Methods for prediction of clinical outcome to epidermal growth factor receptor inhibitors by non-small cell lung cancer patients” (The Regents of the University of Colorado, a body corporate, priority 2004, dated 2016).
pIC50: −log10 of the molar value.

Columns and labels:
Format in all cases: cell-based, human
Calu 3 = experiment: Cetuximab sensitivity of NSCLC cell lines (IC50); details: Calu 3, sensitive line
Text: (§1) Conversely, among the 20 NSCLC lines which were resistant to Cetuximab, none had EGFR or HER2 gene amplification and only 6 had high polysomy for EGFR and/or HER2.

H2279 = experiment: Cetuximab sensitivity of NSCLC cell lines (IC50); details: H2279, sensitive line
Text: as §1

H3255 = experiment: Cetuximab sensitivity of NSCLC cell lines (IC50); details: H3255, sensitive line
Text: as §1

H358 = experiment: Cetuximab sensitivity of NSCLC cell lines (IC50); details: H358, sensitive line
Text: as §1

H827 = experiment: Cetuximab sensitivity of NSCLC cell lines (IC50); details: H827, sensitive line
Text: as §1

[1] = tested on: 20 NSCLC lines resistant to Cetuximab; experiment: Cetuximab sensitivity of NSCLC cell lines (IC50), resistant lines; details: 20 resistant NSCLC lines
Text: as §1

pIC50 (Calu 3): > 6.00
pIC50 (H2279): > 6.00
pIC50 (H3255): > 6.00
pIC50 (H358): > 6.00
pIC50 (H827): > 6.00
pIC50 [1]: < 6.00
Substance: Cetuximab
